These are literature values, as cited in patent US5206220A (Research Corporation Technologies, Inc., priority 1991, dated 1993).

The conditions of this series: mice, 10 mmol/kg body weight; cited from earlier work.

With cyst(e)ine, the “toxicity, single intraperitoneal dose” value is listed as “neurotoxic”.
